According to patent US8168648B2, “Camptothecin derivatives and uses thereof” (Taiwan Liposome Co., Ltd., priority 2009, dated 2012):

What was measured:
Assay type in all cases: cell-based
HCT-116 = assay: In vitro cytotoxicity assay (SRB), HCT-116; conditions: HCT-116 (Human colon cancer), 72 hours of incubation
MCF-7 = assay: In vitro cytotoxicity assay (SRB), MCF-7; conditions: MCF-7 (Human breast cancer), 72 hours of incubation
DMS-114 = assay: In vitro cytotoxicity assay (SRB), DMS-114; conditions: DMS-114 (Small cell lung cancer), 72 hours of incubation
PC14PE6/AS2 = assay: In vitro cytotoxicity assay (SRB), PC14PE6/AS2; conditions: PC14PE6/AS2 (Non-small cell lung cancer), 72 hours of incubation

With CC(ON=C1c2cc([N+](=O)[O-])cc([N+](=O)[O-])c2-c2c1cc([N+](=O)[O-])cc2[N+](=O)[O-])C(=O)O (stereo not shown) the IC50 (HCT-116) was greater than 10 µM, the IC50 (MCF-7) was 6.19 µM and the IC50 (DMS-114) was 0.925 µM. It also gave an IC50 (PC14PE6/AS2) of 3.33 µM.
